Measurements from US20250313563A1, “GLYCOGEN SYNTHASE KINASE 3 INHIBITORS AND USES THEREOF” (The Broad Institute, Inc., priority 2022, published 2025).
Like-named read-outs stand apart in the source and are kept apart here.

Protein sequences, listed by entry. Tags and fused reporters are not part of them.
UniProt P49841, whole entry: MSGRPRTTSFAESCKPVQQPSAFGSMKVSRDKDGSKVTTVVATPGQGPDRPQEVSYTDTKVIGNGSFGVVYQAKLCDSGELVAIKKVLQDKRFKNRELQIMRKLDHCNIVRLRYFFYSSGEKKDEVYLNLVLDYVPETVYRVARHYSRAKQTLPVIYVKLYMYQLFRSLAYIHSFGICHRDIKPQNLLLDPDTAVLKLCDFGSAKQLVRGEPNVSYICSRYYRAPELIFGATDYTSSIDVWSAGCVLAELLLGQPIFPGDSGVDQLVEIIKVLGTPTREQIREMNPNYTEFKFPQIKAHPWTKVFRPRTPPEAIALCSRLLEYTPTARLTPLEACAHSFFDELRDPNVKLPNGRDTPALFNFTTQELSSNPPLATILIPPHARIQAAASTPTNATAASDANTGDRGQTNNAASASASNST
UniProt P49840, whole entry: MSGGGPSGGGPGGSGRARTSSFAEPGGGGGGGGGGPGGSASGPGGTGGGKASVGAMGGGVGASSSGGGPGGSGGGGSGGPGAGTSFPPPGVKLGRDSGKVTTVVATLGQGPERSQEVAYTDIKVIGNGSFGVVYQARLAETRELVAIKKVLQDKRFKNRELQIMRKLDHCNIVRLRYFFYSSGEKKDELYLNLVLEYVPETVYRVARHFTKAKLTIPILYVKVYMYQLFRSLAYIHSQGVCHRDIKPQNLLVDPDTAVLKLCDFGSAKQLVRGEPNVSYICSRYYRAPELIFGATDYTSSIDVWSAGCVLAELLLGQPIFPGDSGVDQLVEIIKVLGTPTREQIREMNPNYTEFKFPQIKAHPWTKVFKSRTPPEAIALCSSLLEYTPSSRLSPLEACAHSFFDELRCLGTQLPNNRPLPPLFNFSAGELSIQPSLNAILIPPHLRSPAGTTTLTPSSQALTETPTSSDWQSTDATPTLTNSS

Tests used:
[1] = target: GSK3b (GST-full length GSK3b) (Homo sapiens (Human), UniProt P49841); assay: GSK3b TR-FRET kinase assay; format: biochemical
[2] = target: GSK3α (GST-full length GSK3α) (Homo sapiens (Human), UniProt P49840); assay: GSK3α TR-FRET kinase assay; format: biochemical
[3] = read-out: GSK3-B (TR-FRET 1 mM ATP), GMean, IC50, 1 mM ATP, geometric mean
[4] = read-out: GSK3-B TR-FRET BIOCHEMICAL (TR-FRET), IC50, 1 nM GSK3b, 2 μM ATP, 30 minute preincubation (Table 16)
[5] = read-out: GSK3-A (TR-FRET 1 mM ATP), GMean, IC50, 1 mM ATP, geometric mean
[6] = read-out: GSK3-A TR-FRET BIOCHEMICAL (TR-FRET), IC50, 1 nM GSK3α, 4 μM ATP, 30 minute preincubation (Table 16)
[7] = read-out: GSK3-B TR-FRET BIOCHEMICAL (TR-FRET);, 1 nM GSK3b, 2 μM ATP, 30 minute preincubation, Table 16
[8] = read-out: GSK3-A TR-FRET BIOCHEMICAL (TR-FRET);, 1 nM GSK3α, 4 μM ATP, 30 minute preincubation, Table 16
[9] = read-out: GSK3-B TR-FRET BIOCHEMICAL (TR-FRET), GMean, IC50, 1 nM GSK3b, 2 μM ATP, 30 minute preincubation, geometric mean
[10] = read-out: GSK3-A TR-FRET BIOCHEMICAL (TR-FRET), GMean, IC50, 1 nM GSK3α, 4 μM ATP, 30 minute preincubation, geometric mean
[11] = read-out: GSK3-B TR-FRET BIOCHEMICAL (TR-FRET), IC50, 1 nM GSK3b, 2 μM ATP, 30 minute preincubation
[12] = read-out: GSK3-A TR-FRET BIOCHEMICAL (TR-FRET), IC50, 1 nM GSK3α, 4 μM ATP, 30 minute preincubation

SMILES	IC50 [1, 4] [µM]	IC50 [2, 6] [µM]	IC50 [1, 9] [µM]	IC50 [2, 10] [µM]	other results
CC[C@]1(c2cccc(-c3cn(C)nc3C(F)(F)F)c2)C2=C(CC(C)(C)NC2=O)Nc2n[nH]cc21	< 0.1	< 0.1	–	–	IC50 [1, 3]: < 0.1 µM; IC50 [2, 5]: < 0.1 µM
CCC1(c2cccc(-c3cc(C)ncn3)c2)C2=C(CC(C)(C)CC2=O)Nc2n[nH]cc21 (centres unmarked)	–	–	–	–	IC50 [1, 7]: 0.1 to 1 µM; IC50 [2, 8]: < 0.1 µM
CC[C@]1(c2cccc(-c3ccnc4cccnc34)c2)C2=C(CC(C)(C)NC2=O)Nc2n[nH]cc21	< 0.1	< 0.1	–	–	IC50 [1, 3]: > 5 µM; IC50 [2, 5]: 0.1 to 1 µM
CC[C@@]1(c2cccc(C(F)(F)F)c2)C2=C(CCN(c3cscn3)C2=O)Nc2n[nH]cc21	0.1 to 1	< 0.1	–	–	–
CC[C@]1(c2cccc(-c3cnn(CCc4ccccc4)c3)c2)C2=C(CC(C)(C)NC2=O)Nc2n[nH]cc21	0.1 to 1	< 0.1	–	–	–
CCC1(c2cccc(C(F)(F)F)c2)C2=C(CC(C)(C)CC2=O)Nc2n[nH]cc21 (centres unmarked) [Compound 790754]	–	–	< 0.1	< 0.1	–
CC[C@@]1(c2cccc(-c3ccncc3)c2)C2=C(CC(C)(C)CC2=O)Nc2n[nH]c(C)c21	< 0.1	< 0.1	–	–	–
CC[C@]1(c2cccc(-c3ccnn3C)c2)C2=C(CC(C)(C)CC2=O)Nc2n[nH]cc21	0.1 to 1	< 0.1	–	–	–
CC1(C)CC(=O)C2=C(C1)Nc1n[nH]cc1[C@@]21COC2(CN(C(=O)[C@@H]3CC3(F)F)C2)C1	–	–	–	–	IC50 [1, 11]: 0.1 to 1 µM; IC50 [2, 12]: 0.1 to 1 µM
CC(C)(C)Cc1[nH]nc2c1C1(CCc3cccc(F)c31)C1=C(CC(C)(C)CC1=O)N2 (centres unmarked) [Compound 801351]	–	–	0.1 to 1	0.1 to 1	–
CCC1(c2cccc(N(C)c3ncccn3)c2)C2=C(CC(C)(C)NC2=O)Nc2n[nH]c(C)c21 (centres unmarked) [Compound 949182]	–	–	< 0.1	< 0.1	–
CC[C@@]1(c2cccc(S(C)(=O)=O)c2)C2=C(CC(C)(C)NC2=O)Nc2n[nH]cc21	–	–	–	–	IC50 [1, 11]: > 5 µM; IC50 [2, 12]: 1 to 5 µM
CC[C@]1(c2cccc(-c3ccnc(C)c3)c2)C2=C(CC(C)(C)NC2=O)Nc2n[nH]cc21	–	–	–	–	IC50 [1, 11]: > 5 µM; IC50 [2, 12]: 0.1 to 1 µM
CC1(C)CC(=O)C2=C(C1)Nc1n[nH]cc1[C@]21COC2(CN(C(=O)[C@H]3CC3(F)F)C2)C1	–	–	–	–	IC50 [1, 3]: 0.1 to 1 µM; IC50 [1, 11]: < 0.1 µM; IC50 [2, 5]: 0.1 to 1 µM; IC50 [2, 12]: < 0.1 µM
CC[C@@]1(c2cccc(-c3ccnc(C)c3)c2)C2=C(C[C@]3(CCCOC3)NC2=O)Nc2n[nH]cc21	–	–	0.1 to 1	< 0.1	–
COc1ccc(S(=O)(=O)N2CCC[C@]3(CC2)C2=C(CC(C)(C)CC2=O)Nc2n[nH]cc23)cc1	–	–	–	–	IC50 [1, 7]: 0.1 to 1 µM; IC50 [2, 8]: < 0.1 µM
CC[C@@]1(c2cccc(-c3cnn(C(C)C)c3F)c2)C2=C(CC(C)(C)NC2=O)Nc2n[nH]cc21	1 to 5	0.1 to 1	–	–	–
CC[C@@]1(c2cccc(-c3cc(C)ncc3F)c2)C2=C(CC(C)(C)NC2=O)Nc2n[nH]c(C)c21	< 0.1	< 0.1	–	–	–
CC[C@]1(c2cccc(S(=O)(=O)C(C)C)c2)C2=C(CC(C)(C)NC2=O)Nc2n[nH]cc21	–	–	1 to 5	0.1 to 1	–
CC[C@]1(c2cccc(-c3ccncc3C)c2)C2=C(CC(C)(C)CC2=O)Nc2n[nH]cc21 [Compound 913047]	–	–	–	–	IC50 [1, 7]: 1 to 5 µM; IC50 [2, 8]: 0.1 to 1 µM
CC[C@]1(c2cccc(-c3c(F)cncc3OC)c2)C2=C(CC(C)(C)CC2=O)Nc2n[nH]cc21	–	–	–	–	IC50 [1, 7]: 0.1 to 1 µM; IC50 [2, 8]: < 0.1 µM
CC[C@]1(c2cccc(N3CCCC3)c2)C2=C(CC(C)(C)CC2=O)Nc2n[nH]cc21	–	–	0.1 to 1	< 0.1	–
CC[C@@]1(c2ccc(OC(C)C)cc2)C2=C(CC(C)(C)CC2=O)Nc2n[nH]c(C(F)(F)F)c21	–	–	–	–	IC50 [1, 7]: 0.1 to 1 µM; IC50 [2, 8]: 0.1 to 1 µM
CCC1(c2cccc(C(F)(F)F)c2)C2=C(CC3(CCC3)NC2=O)Nc2n[nH]cc21 (centres unmarked)	< 0.1	< 0.1	–	–	–
CCC1(c2cccc(-c3cncn3C)c2)C2=C(CC(C)(C)NC2=O)Nc2n[nH]cc21 (single isomer, unassigned)	–	–	–	–	IC50 [1, 11]: < 0.1 µM; IC50 [2, 12]: < 0.1 µM
CC[C@@]1(c2cccc(-c3cc(C)ncc3C)c2)C2=C(CC(C)(C)CC2=O)Nc2n[nH]cc21	–	–	–	–	IC50 [1, 7]: < 0.1 µM; IC50 [2, 8]: < 0.1 µM
CC[C@@]1(c2cccc(-c3cnnc(C)c3)c2)C2=C(CC(C)(C)NC2=O)Nc2n[nH]cc21	–	–	–	–	IC50 [1, 11]: > 5 µM; IC50 [2, 12]: 1 to 5 µM
CC[C@]1(c2cccc(-c3ccnc(C)c3)c2)C2=C(C[C@@H](C)NC2=O)Nc2n[nH]cc21	–	–	–	–	IC50 [1, 3]: > 5 µM; IC50 [1, 11]: 0.1 to 1 µM; IC50 [2, 5]: 0.1 to 1 µM; IC50 [2, 12]: < 0.1 µM
CC[C@@]1(c2cccc(C(F)(F)F)c2)C2=C(CCN(Cc3ccccc3)C2=O)Nc2n[nH]cc21	–	–	–	–	IC50 [1, 11]: 1 to 5 µM; IC50 [2, 12]: 0.1 to 1 µM
CC[C@@]1(c2cccc(-c3ccnc4cc(F)c(F)cc34)c2)C2=C(CC(C)(C)NC2=O)Nc2n[nH]cc21	–	–	> 5	1 to 5	–

Continued, in another order:

IC50 [1, 4] [µM]	IC50 [2, 6] [µM]	IC50 [1, 9] [µM]	IC50 [2, 10] [µM]	SMILES	other results
–	–	1 to 5	0.1 to 1	CC[C@]1(c2cccc(-c3ccnc(N4CCOCC4)c3)c2)C2=C(CC(C)(C)NC2=O)Nc2n[nH]cc21	–
1 to 5	0.1 to 1	–	–	CC[C@]1(c2cccc(C(F)(F)F)c2)C2=C(CCN(c3cn(C)nc3C)C2=O)Nc2n[nH]cc21	–
–	–	> 5	> 5	CC[C@@]1(c2cccc(Br)c2)C2=C(C[C@H](C)CC2=O)Nc2n[nH]cc21	–
< 0.1	< 0.1	–	–	CC[C@]1(c2cccc(-c3cc(C)nnc3C)c2)C2=C(CC(C)(C)NC2=O)Nc2n[nH]c(C(F)(F)F)c21	IC50 [1, 3]: < 0.1 µM; IC50 [2, 5]: < 0.1 µM
–	–	< 0.1	< 0.1	CC[C@]1(c2cccc(Br)c2)C2=C(CC(C)(C)CC2=O)Nc2n[nH]c(C(F)(F)F)c21	IC50 [1, 3]: 0.1 to 1 µM; IC50 [2, 5]: < 0.1 µM
–	–	> 5	> 5	CC[C@@]1(c2cccc(Br)c2)C2=C(C[C@@H](C(F)(F)F)CC2=O)Nc2n[nH]cc21	–
–	–	0.1 to 1	< 0.1	CC[C@]1(c2cccc(-c3ccccc3)c2)C2=C(CC(C)(C)CC2=O)Nc2n[nH]cc21	–
–	–	< 0.1	< 0.1	CC[C@]1(c2cccc(S(C)(=O)=O)c2)C2=C(CC(C)(C)NC2=O)Nc2n[nH]c(C(F)(F)F)c21	IC50 [1, 3]: < 0.1 µM; IC50 [2, 5]: < 0.1 µM
–	–	< 0.1	0.1 to 1	CC(C)(C)Cc1[nH]nc2c1[C@@]1(CCc3cc(F)ccc31)C1=C(CC(C)(C)CC1=O)N2	–
–	–	0.1 to 1	< 0.1	CC[C@@]1(c2cccc(C(F)(F)F)c2)C2=C(CCN(c3ccc(OC)cc3)C2=O)Nc2n[nH]c(C)c21	–
< 0.1	< 0.1	–	–	CC[C@]1(c2cccc(NS(C)(=O)=O)c2)C2=C(CC(C)(C)CC2=O)Nc2n[nH]cc21	–
0.1 to 1	< 0.1	–	–	CCC1(c2cccc(-c3cnn(C4CC4)c3)c2)C2=C(CC(C)(C)CC2=O)Nc2n[nH]c(C)c21 (centres unmarked)	–
0.1 to 1	< 0.1	–	–	CC[C@H]1CCN1c1cccc([C@]2(CC)C3=C(CC(C)(C)CC3=O)Nc3n[nH]cc32)c1	–
> 5	1 to 5	–	–	CC[C@]1(c2cccc(-c3cnn(C4CC4)c3)c2)C2=C(CC(C)(C)CC2=O)Nc2n[nH]cc21	–
0.1 to 1	< 0.1	–	–	CC[C@]1(c2cccc(-c3ccnc4cc(F)cnc34)c2)C2=C(CC(C)(C)NC2=O)Nc2n[nH]cc21	–
–	–	0.1 to 1	< 0.1	CC[C@]1(c2cccc(Br)c2)C2=C(C[C@@H](C)CC2=O)Nc2n[nH]cc21	–
–	–	> 5	1 to 5	CC[C@@]1(c2cccc(-c3cn(C)nc3C(C)C)c2)C2=C(CC(C)(C)NC2=O)Nc2n[nH]cc21	–
–	–	0.1 to 1	< 0.1	CC[C@@]1(c2cccc(Br)c2)C2=C(C[C@@H](C)CC2=O)Nc2n[nH]cc21	–
